# System: ARPE-19, NIH/3T3 and 293T cells
# Test: Toxicities analysis on lysozyme and oxazolidinone-class antibiotics
# Settings: exposure 12 hours and 24 hours
compound,measurement,value
"Cn1nnc(-c2ccc(-c3ccc(N4C[C@H](COP(=O)(O)O)OC4=O)cc3F)cn2)n1 [tedizolid phosphate, Tedizolid Phosphate]",sensitivity of cell lines (toxicity),insensitive
